From paper PMC9568543, “Bee-safe peptidomimetic acaricides achieved by comparative genomics” (Scientific Reports, 2022) come the findings set out here.

The chains behind the UniProt entries cited, without tags or fusion partners.
UniProt A0A7T1TE40, entry or part of it: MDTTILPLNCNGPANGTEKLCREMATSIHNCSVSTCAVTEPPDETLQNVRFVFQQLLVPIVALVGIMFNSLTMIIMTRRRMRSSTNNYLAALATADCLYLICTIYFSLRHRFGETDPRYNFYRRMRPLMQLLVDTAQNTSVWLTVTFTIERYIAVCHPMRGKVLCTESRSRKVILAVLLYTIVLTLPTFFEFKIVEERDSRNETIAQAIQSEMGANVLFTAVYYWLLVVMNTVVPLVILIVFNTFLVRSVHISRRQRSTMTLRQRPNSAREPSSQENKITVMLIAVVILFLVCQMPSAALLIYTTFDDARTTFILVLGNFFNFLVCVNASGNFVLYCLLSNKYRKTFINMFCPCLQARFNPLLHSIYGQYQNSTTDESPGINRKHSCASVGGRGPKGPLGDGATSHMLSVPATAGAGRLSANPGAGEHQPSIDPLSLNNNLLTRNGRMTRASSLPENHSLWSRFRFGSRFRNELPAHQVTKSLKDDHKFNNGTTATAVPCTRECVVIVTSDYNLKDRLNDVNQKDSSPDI

In one experiment the target is T1, Varroa mite proctolin receptor (VdProctR) (Varroa destructor, UniProt A0A7T1TE40). Description: Receptor activity assay (aequorin luminescence), CHO cells transiently expressing the receptor, first set of ligands. Format: cell-based. As to conditions: EC50 relative to proctolin, first set (transient expression). As for the experimental part:
(§1) Cells were transiently transfected with pcDNA3.1 + containing the open reading frame of Varroa mite proctolin receptor (VdProctR) or empty vector using TransIT®-2020 (Mirus Bio). Approximately thirty hours after transfection, the cells were collected and preincubated with coelenterazine h for the functional assay, as previously described[30],[31],[52]. The ligands in serial dilutions were loaded into 96-well opaque plates. Cells treated with coelenterazine h were injected into each well on an Orion microplate luminometer (Berthold) luminescent plate reader. The luminescence was measured for 20 s immediately after the cell injections. Data analyses were performed to determine the accumulated luminescence value for 20 s after extraction of blank-well luminescence. A dose–response curve was generated and the EC50 (50% effective concentration) was calculated in Origin 7 (OriginLab) as described in Jiang et al.[31],[53]. The three biological replications were regressed for the dose–response curves with 95% confidence intervals (Table 1). For the tests of the second set of ligands, we used the cell line that stably expressed VdProctR, which were selected by Zeocin for 5 passages.
`CC(C)C[C@H](NC(=O)[C@H](Cc1ccc(O)cc1)NC(=O)[C@H](N)CCCNC(=N)N)C(=O)N1CCC[C@H]1C(=O)N[C@H](C(=O)O)[C@@H](C)O` [Analog 2330, [dR]YLPT]: the Fold change came to 35.2.

In turn, `CC(C)C[C@H](NC(=O)[C@H](Cc1ccc(O)cc1)NC(=O)[C@@H](N)CCCNC(=N)N)C(=O)N1[C@H](C(=O)N[C@H](C(=O)O)[C@@H](C)O)C[C@@H]2CCCC[C@@H]21` [Analog 2336, RYL[Oic]T] displayed a Fold change of 7.5.

On to `CC(C)C[C@H](NC(=O)[C@H](Cc1ccc(O)cc1)NC(=O)[C@@H](N)CCCNC(=N)N)C(=O)N1CCC[C@H]1C(=O)N[C@H](C(=O)O)[C@@H](C)O` [Proctolin, RYLPT], for which the Fold change was 1.

Turning to RYL[Aib]T [Analog 2335], the Fold change stood at 11.0.

Take RYL[HyP]T [Analog 2334]: the Fold change is listed as 2.8.

Consider RYL[β3P]T [Analog 2331], for which the Fold change turned out to be 32.3.

The target of the next experiment is T1, Varroa mite proctolin receptor (VdProctR). Put plainly: Receptor activity assay, CHO cell line stably expressing the receptor, second set of ligands. As to conditions: EC50 relative to proctolin, second set (stable expression). Format: cell-based. As for the experimental part: as §1
For the molecule `CC(C)C[C@H](NC(=O)[C@H](Cc1ccc(O)cc1)NC(=O)[C@@H](N)CCCNC(=N)N)C(=O)N1CCC[C@H]1C(=O)N[C@H](C(=O)O)[C@@H](C)O` [Proctolin, RYLPT], the Fold change is recorded as 1.0.
